Measurements: patent publication US6753155B1, “Protein biomarker for mustard chemical injury” (dated 2004)

Test system: mustard-stimulated protease
Experiment: Inhibition of CEES-induced protease stimulation in NHEK (CPSPA), agents in the extracellular medium
Settings: cycloheximide 35 μM in extracellular medium; 200 μM CEES

## C[C@@H]1C[C@@H]([C@H](O)CC2CC(=O)NC(=O)C2)C(=O)[C@@H](C)C1
  inhibition of CEES-induced protease stimulation: completely inhibited
